Data published in ChEMBL document CHEMBL3407465, “Interaction of human organic anion transporter polypeptides 1B1 and 1B3 with antineoplastic compounds” (Eur J Med Chem, 2015).

Chains of the proteins cited; added tags and fusions are not shown. Lines headed by an entry give the natural chain unless they say otherwise; changes in a name come on top.
UniProt Q9Y6L6: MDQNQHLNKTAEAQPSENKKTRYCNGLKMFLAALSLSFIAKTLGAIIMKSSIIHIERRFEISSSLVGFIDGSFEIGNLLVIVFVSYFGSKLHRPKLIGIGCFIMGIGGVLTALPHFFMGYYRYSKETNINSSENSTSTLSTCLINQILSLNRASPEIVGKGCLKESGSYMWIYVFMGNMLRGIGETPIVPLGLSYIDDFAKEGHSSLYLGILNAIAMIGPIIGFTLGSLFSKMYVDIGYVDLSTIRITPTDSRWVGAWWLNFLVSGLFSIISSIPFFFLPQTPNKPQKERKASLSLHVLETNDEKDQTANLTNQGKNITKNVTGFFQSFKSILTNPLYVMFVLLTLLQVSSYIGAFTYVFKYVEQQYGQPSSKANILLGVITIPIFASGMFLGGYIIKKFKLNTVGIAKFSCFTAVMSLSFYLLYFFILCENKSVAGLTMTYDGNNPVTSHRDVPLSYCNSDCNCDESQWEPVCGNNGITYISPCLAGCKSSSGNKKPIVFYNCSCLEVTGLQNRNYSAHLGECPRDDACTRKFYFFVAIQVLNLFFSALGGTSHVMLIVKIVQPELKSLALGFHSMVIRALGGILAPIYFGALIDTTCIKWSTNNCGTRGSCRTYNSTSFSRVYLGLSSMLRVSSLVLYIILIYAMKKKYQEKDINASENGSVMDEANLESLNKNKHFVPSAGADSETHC

Experiments:
[1] = molecular target: Solute carrier organic anion transporter family member 1B1 (Homo sapiens, UniProt Q9Y6L6); assay: Inhibition of human OATP1B1-mediated [3H]estrone 3-sulfate at 100 uM after 5 mins relative to control; assay type: ADME
OATP1B1 = OATP1B1 (Homo sapiens, UniProt Q9Y6L6); assay: Inhibition of OATP1B1 (unknown origin)-mediated sodium fluorescein expressed in CHO cells at 10 uM; assay type: ADME, cell-based; settings: CHO cells expressing OATP1B1, probe sodium fluorescein

SMILES: CC(=O)O[C@H]1C(=O)[C@@]2(C)[C@H]([C@H](OC(=O)c3ccccc3)[C@]3(O)C[C@H](OC(=O)[C@H](O)[C@@H](NC(=O)c4ccccc4)c4ccccc4)C(C)=C1C3(C)C)[C@]1(OC(C)=O)CO[C@@H]1C[C@@H]2O [PACLITAXEL]
- inhibition (INH) [1]: 87.6%
- inhibition at 10 µM (OATP1B1): 16.4%
